Our source for the Ki values is ChEMBL document CHEMBL1125449, “Substitution on the Phe3 aromatic ring in cyclic delta opioid receptor-selective dermorphin/deltorphin tetrapeptide analogues: electronic and lipophilic requirements for receptor affinity” (J Med Chem, 1992).

The chains behind the UniProt entries cited, without tags or fusion partners. Where a name states a change or a piece, a line headed by the entry shows the natural chain unless it says otherwise.
UniProt P97266, whole entry: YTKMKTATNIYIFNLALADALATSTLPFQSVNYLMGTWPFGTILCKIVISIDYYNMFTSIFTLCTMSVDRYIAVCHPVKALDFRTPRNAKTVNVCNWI
UniProt P41144: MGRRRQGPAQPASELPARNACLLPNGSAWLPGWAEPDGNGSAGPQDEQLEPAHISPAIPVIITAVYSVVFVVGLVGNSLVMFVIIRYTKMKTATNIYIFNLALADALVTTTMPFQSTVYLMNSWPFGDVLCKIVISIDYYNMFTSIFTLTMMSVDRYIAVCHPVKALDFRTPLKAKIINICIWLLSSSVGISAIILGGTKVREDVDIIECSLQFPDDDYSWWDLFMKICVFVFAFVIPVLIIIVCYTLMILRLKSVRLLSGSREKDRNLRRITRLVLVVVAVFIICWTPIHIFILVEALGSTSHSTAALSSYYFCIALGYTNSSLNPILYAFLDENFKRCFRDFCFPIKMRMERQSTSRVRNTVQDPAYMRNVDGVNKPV

The target in one test is Mu-type opioid receptor (Cavia porcellus, UniProt P97266). Kind of test: Compound was tested for the inhibition of [3H]- [D-Ala2, N-MePhe4, Gly5-ol]-enkephalin (DAMGO) binding to Opioid receptor mu 1 in guinea pig brain homogenates. Format: tissue-based. Summed up: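 Guinea pig brain membranes (washed, preincubated 37 °C 30 min to remove endogenous opioids) in 50 mM Tris pH 7.4. Test compound preincubated with membranes 15 min at 25 °C, then 0.6 nM [3H]DAMGO added and incubated 75 min at 25 °C. Nonspecific binding defined with 5 μM DAMGO. Filtration, scintillation counting. 12 concentrations, triplicate. IC50 by regression; Ki from saturation-derived KD.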

Test [1] has as its target Kappa-type opioid receptor (Cavia porcellus, UniProt P41144). Kind of test: Compound was tested for the inhibition of [3H]- (U69,593) binding to Opioid receptor kappa 1 in guinea pig brain homogenates. Format: tissue-based.

Where only a bound is given, the exact number is not on record here.

Consider `CC1(C)SSC[C@H](NC(=O)[C@@H](N)Cc2ccc(O)cc2)C(=O)N[C@@H](Cc2ccccc2)C(=O)N[C@@H]1C(=O)O`, for which the Ki at Mu-type opioid receptor was 107 nM; in test [1] it was greater than 10000 nM.
